In patent US20100028259A1, “USE OF ORGANIC CATION TRANSPORTERS FOR CANCER DIAGNOSIS AND THERAPY” (The Regents of the University of California, priority 2006, published 2010):

Assays:
MDCK-hOCT1 cells [1] = assay: Cellular accumulation of platinum in MDCK-hOCT1 cells (ICP-MS); assay type: in vitro ADME, canine; details: 2-hr exposure, 3 μM
Protocol: (§1) For the inhibitor studies, the incubation medium also contained disopyramide (150 μM). […] For the inhibitor studies, the incubation medium also contained cimetidine (1.5 mM). […] After drug exposure, the cells were washed with ice-cold PBS three times and harvested by scraping and centrifugation. The cell-associated platinum was determined by ICP-MS and normalized for protein content. Data are expressed as mean±SD from a single experiment performed in triplicate. Experiments were replicated for OCT1 and OCT2, and similar results were obtained.
(§2) The cellular accumulation of platinum was determined as described in Holzer et al., Mol. Pharmacol., 66:817-823 (2004) with some modifications. Briefly, the cells were grown in 100 mm×20 mm dishes in the culture medium without any antibiotics to over 90% confluence. For HEK 293 cells, poly-D-lysine coated dishes were used. For platinum accumulation, the cells were incubated in the culture medium containing the indicated concentrations of the platinum compounds at 37° C. in 5% CO2 for 2 hr unless specified. […] The platinum content was measured by inductively plasma coupled mass spectrometry (ICP-MS) in the Analytical Facility at the University of California at Santa Cruz (Santa Cruz, Calif.). […]

HEK-MOCK cells [2] = assay: Platinum-DNA adduct formation in HEK-MOCK cells; assay type: cell-based, human; details: cimetidine 1.5 mM
Protocol: (§3) After incubation at 37° C. and 5% CO2 for 2 hours, the cells were washed with ice-cold PBS three times and harvested. The genomic DNA was isolated from the cells and the platinum content associated with DNA was determined by ICP-MS and normalized for DNA content. Data are expressed as mean±SD from a typical experiment performed in triplicate. Two independent experiments were conducted and similar results were obtained.
(§4) The platinum content associated with genomic DNA was determined as described in Samimi et al., Clin. Cancer Res., 10:4661-4669 (2004) with some modifications. Briefly, the cells were grown in 100 mm×20 mm dishes in the culture medium without any antibiotics to over 90% confluence. For HEK 293 cells, poly-D-lysine coated dishes were used. Then, the cells were incubated in the culture medium containing the specified concentrations of the platinum-based compounds at 37° C. in 5% CO2 for 2 hours (or 25 min as specified). In some experiments, phosphate buffer (PB: 1.06 mM KH2PO4, 2.97 mM Na2HPO4, pH 7.4) containing 155 mM NaCl (PB—Cl buffer) or 103 mM Na2SO4 (PB—SO4 buffer) was used instead of the culture medium as specified. For the OCT inhibitor study, the incubation medium (buffer) also contained disopyramide or cimetidine). […] The platinum content was analyzed using ICP-MS and the DNA content was measured by absorption spectroscopy.

HEK-hOCT2 cells [3] = assay: Cellular accumulation of platinum in HEK-hOCT2 cells (ICP-MS); assay type: in vitro ADME, human; details: 2-hr exposure
Protocol: as §1, §2

MDCK-hOCT1 cells [4] = assay: MTT drug sensitivity assay in MDCK-hOCT1 cells; assay type: cell-based, canine; details: disopyramide 150 μM
Protocol: Cytotoxicity of the platinum-based compounds was measured by MTT (thiazolyl blue tetrazolium bromide) assay. Cells were seeded in 100 μl of the culture medium without any antibiotics in 96-well plates at a predetermined cell density. For HEK 293 cells, poly-D-lysine coated plates were used. […] For the OCT inhibitor studies, the inhibitors (i.e., disopyramide or cimetidine) were added to the medium at a specified concentration immediately before the addition of the platinum-based compounds. […]
(§5) Briefly, the cells were seeded in 96-well plates at a density of 5,000 cells/well for the transfected MDCK cells or 12,000 cells/well for the transfected HEK 293 cells. […] After incubation, the cell growth was determined by an MTT assay. Data are expressed as mean±SD from 3 to 6 independent experiments with each performed in quadruplicate. […]
Briefly, MDCK cells were seeded at a density of 5,000 cells/well in 96-well plates and exposed to the test compounds for 7 hours on the following day. After incubation for a total of 72 hours, the cell growth was determined by an MTT assay. The data for carboplatin was taken from Table 1 and was not determined simultaneously with the other compounds. […] Data are expressed as mean±SD from six measurements, and each measurement was performed in quadruplicate.

HEK-hOCT2 cells [5] = assay: MTT drug sensitivity assay in HEK-hOCT2 cells; assay type: cell-based, human; details: cimetidine 1.5 mM
Protocol: Cytotoxicity of the platinum-based compounds was measured by MTT (thiazolyl blue tetrazolium bromide) assay. Cells were seeded in 100 μl of the culture medium without any antibiotics in 96-well plates at a predetermined cell density. For HEK 293 cells, poly-D-lysine coated plates were used. […] For the OCT inhibitor studies, the inhibitors (i.e., disopyramide or cimetidine) were added to the medium at a specified concentration immediately before the addition of the platinum-based compounds. After incubation for a specified time period, the drug-containing medium was replaced with fresh, drug-free medium and the incubation was continued for a total of 72 hours (start from the addition of platinum-based compounds). Then, the MTT assay was performed similarly as described in Alley et al., Cancer Res., 48:589-601 (1988). […] The maximal cell growth was the cell growth in the medium without any platinum-based compounds; C is the concentration of the platinum-based compound, and γ is the slope factor.
as §5, with “cells. The platinum-based drugs were added on the following day.” for “cells.”

MDCK-MOCK cells = assay: Platinum-DNA adduct formation in MDCK-MOCK cells; assay type: cell-based, canine; details: 2-hr exposure, oxaliplatin 10 μM, culture medium
Protocol: as §3
(§6) After incubation, the cells were washed with ice-cold PBS three times and harvested. Genomic DNA was isolated from the harvested cells and the DNA-associated platinum content was determined by ICP-MS and normalized for the DNA content. Data are expressed as mean±SD of three measurements.
as §4, with “specified).” for “specified). In some experiments, phosphate buffer (PB: 1.06 mM KH2PO4, 2.97 mM Na2HPO4, pH 7.4) containing 155 mM NaCl (PB—Cl buffer) or 103 mM Na2SO4 (PB—SO4 buffer) was used instead of the culture medium as specified. For the OCT inhibitor study, the incubation medium (buffer) also contained disopyramide or cimetidine).”

OCT1 = details: wild-type and variants G401S, 420 del, S14F, R61c, G220V, V408M, G465R
HEK-hOCT2 cells [6] = assay: Platinum-DNA adduct formation in HEK-hOCT2 cells; assay type: cell-based, human; details: 2-hr exposure
Protocol: as §3, §4

MDCK-hOCT1 cells [7] = assay: Platinum-DNA adduct formation in MDCK-hOCT1 cells; assay type: cell-based, canine
Protocol: as §3, §6
The platinum content associated with genomic DNA was determined as described in Samimi et al., Clin. Cancer Res., 10:4661-4669 (2004) with some modifications. Briefly, the cells were grown in 100 mm×20 mm dishes in the culture medium without any antibiotics to over 90% confluence. For HEK 293 cells, poly-D-lysine coated dishes were used. Then, the cells were incubated in the culture medium containing the specified concentrations of the platinum-based compounds at 37° C. in 5% CO2 for 2 hours (or 25 min as specified). In some experiments, phosphate buffer (PB: 1.06 mM KH2PO4, 2.97 mM Na2HPO4, pH 7.4) containing 155 mM NaCl (PB—Cl buffer) or 103 mM Na2SO4 (PB—SO4 buffer) was used instead of the culture medium as specified. For the OCT inhibitor study, the incubation medium (buffer) also contained disopyramide or cimetidine). If PB—Cl or PB—SO4 buffer was used, the cells were washed with the same buffer once before drug incubation. After incubation, the cells were washed with ice-cold PBS, scraped, and pelleted. Genomic DNA was isolated from the cell pellets using the Wizard® Genomic DNA Purification Kit (Promega, Madison, Wis.) following the manufacturer's instructions. Briefly, the cells were lysed with Nuclei Lysis Solution. After RNA digestion and protein precipitation, the lysates were centrifuged and the resulting supernatant was aliquoted. The genomic DNA prepared from two different aliquots of the supernatant was used for platinum and DNA content determination, respectively. For the determination of platinum, the DNA samples were treated with 70% nitric acid at 65° C. and diluted in the same way as described above. The platinum content was analyzed using ICP-MS and the DNA content was measured by absorption spectroscopy.

HEK-MOCK cells [8] = assay: MTT drug sensitivity assay in HEK-MOCK cells (control of HEK-hOCT2); assay type: cell-based, human; details: cimetidine 1.5 mM
Protocol: Cytotoxicity of the platinum-based compounds was measured by MTT (thiazolyl blue tetrazolium bromide) assay. Cells were seeded in 100 μl of the culture medium without any antibiotics in 96-well plates at a predetermined cell density. For HEK 293 cells, poly-D-lysine coated plates were used. After overnight incubation, the platinum-based compounds were then added to the culture medium to give the indicated final concentrations. For the OCT inhibitor studies, the inhibitors (i.e., disopyramide or cimetidine) were added to the medium at a specified concentration immediately before the addition of the platinum-based compounds. After incubation for a specified time period, the drug-containing medium was replaced with fresh, drug-free medium and the incubation was continued for a total of 72 hours (start from the addition of platinum-based compounds). Then, the MTT assay was performed similarly as described in Alley et al., Cancer Res., 48:589-601 (1988). […]
as §5

SMILES: O=C1[O][Pt]2([NH][C@@H]3CCCC[C@H]3[NH]2)[O]C1=O [oxaliplatin]
- fold higher platinum accumulation rate, MDCK-hOCT1 vs MDCK-MOCK (MDCK-hOCT1 cells [1]): 2.90 fold
- fold decrease of platinum-DNA adduct level by cimetidine in HEK-MOCK (HEK-MOCK cells [2]): 1.70 fold
- fold higher platinum accumulation rate, HEK-hOCT2 vs HEK-MOCK (HEK-hOCT2 cells [3]): 21.7 fold
- fold increase of IC50 by disopyramide in MDCK-hOCT1 (MDCK-hOCT1 cells [4]): 6.01 fold
- fold increase of IC50 by cimetidine in HEK-hOCT2 (HEK-hOCT2 cells [5]): 72 fold
- rb (ratio of bound platinum atoms per nucleotide) in MDCK-MOCK (MDCK-MOCK cells): 3.63±0.33×10^−6
- response to oxaliplatin therapy by OCT1 genotype (OCT1): wild-type OCT1 and V408M OCT1 provide the best response
- fold higher platinum-DNA adduct level, HEK-hOCT2 vs HEK-MOCK (HEK-hOCT2 cells [6]): 28.8 fold
- fold higher DNA-associated platinum level, MDCK-hOCT1 vs MDCK-MOCK (MDCK-hOCT1 cells [7]; 20 μM, PB—Cl, 25 min): 2.74 fold
- fold greater platinum-DNA adduct level, MDCK-hOCT1 vs MDCK-MOCK (MDCK-hOCT1 cells [7]; 2-hr exposure, culture medium): 4.15 fold
- rb (ratio of bound platinum atoms per nucleotide) in MDCK-hOCT1 (MDCK-hOCT1 cells [7]; 2-hr exposure, oxaliplatin 10 μM, culture medium): 1.51±0.04×10^−5
- fold decrease of platinum-DNA adduct formation by disopyramide in MDCK-hOCT1 (MDCK-hOCT1 cells [7]; disopyramide 150 μM): 2.11 fold
- fold increase of IC50 by cimetidine in HEK-MOCK (HEK-MOCK cells [8]): 3.18 fold
